{
  "source": "patent US6391876B1",
  "about": "(Pharmacia and Upjohn Company, priority 1998, dated 2002)",
  "key": {"[1]": {"settings": "different animal models", "text": "Leonard-BE, “Noradrenaline in basic models of depression.” European-Neuropsychopharmacol. April 1997; 7 Suppl 1: S11-6; discussion S71-3."}, "[2]": {"settings": "in vivo"}, "[3]": {"system": "patients with panic Disorder with or without Agoraphobia", "settings": "vs placebo, at some point in time"}},
  "data": [
    {"smiles": "CCOc1ccccc1OC(c1ccccc1)C1CNCCO1", "note": "(stereo not shown) [reboxetine]", "values": [
      {"measurement": "anti-cholinergic activity", "setting": "[1]", "value": "only weak or no anti-cholinergic activity"},
      {"measurement": "antireserpine activity", "setting": "[2]", "value": "potent antireserpine activity"},
      {"measurement": "ability to desensitize ν-adrenergic receptor function", "setting": "ν-adrenergic receptor", "value": "ability to desensitize"},
      {"measurement": "occupational functioning", "setting": "[3]", "value": "better"}
    ]}
  ]
}
